Experimental data taken from PubChem BioAssay AID720708 (National Center for Advancing Translational Sciences (NCATS), 2013).
The list shows a part of the results, in another mix than the full data. Calls of active or inactive are those of the source. The call rests on the fitted dose curve; in most records, active means well fitted inhibition curve with a large enough effect; inconclusive means small, poorly fitted or top-dose-only effect; inactive means no such curve, though single readings can be large or run the other way.

Protein sequences, listed by entry. Tags and fused reporters are not part of them.
UniProt Q8WZA2, whole entry: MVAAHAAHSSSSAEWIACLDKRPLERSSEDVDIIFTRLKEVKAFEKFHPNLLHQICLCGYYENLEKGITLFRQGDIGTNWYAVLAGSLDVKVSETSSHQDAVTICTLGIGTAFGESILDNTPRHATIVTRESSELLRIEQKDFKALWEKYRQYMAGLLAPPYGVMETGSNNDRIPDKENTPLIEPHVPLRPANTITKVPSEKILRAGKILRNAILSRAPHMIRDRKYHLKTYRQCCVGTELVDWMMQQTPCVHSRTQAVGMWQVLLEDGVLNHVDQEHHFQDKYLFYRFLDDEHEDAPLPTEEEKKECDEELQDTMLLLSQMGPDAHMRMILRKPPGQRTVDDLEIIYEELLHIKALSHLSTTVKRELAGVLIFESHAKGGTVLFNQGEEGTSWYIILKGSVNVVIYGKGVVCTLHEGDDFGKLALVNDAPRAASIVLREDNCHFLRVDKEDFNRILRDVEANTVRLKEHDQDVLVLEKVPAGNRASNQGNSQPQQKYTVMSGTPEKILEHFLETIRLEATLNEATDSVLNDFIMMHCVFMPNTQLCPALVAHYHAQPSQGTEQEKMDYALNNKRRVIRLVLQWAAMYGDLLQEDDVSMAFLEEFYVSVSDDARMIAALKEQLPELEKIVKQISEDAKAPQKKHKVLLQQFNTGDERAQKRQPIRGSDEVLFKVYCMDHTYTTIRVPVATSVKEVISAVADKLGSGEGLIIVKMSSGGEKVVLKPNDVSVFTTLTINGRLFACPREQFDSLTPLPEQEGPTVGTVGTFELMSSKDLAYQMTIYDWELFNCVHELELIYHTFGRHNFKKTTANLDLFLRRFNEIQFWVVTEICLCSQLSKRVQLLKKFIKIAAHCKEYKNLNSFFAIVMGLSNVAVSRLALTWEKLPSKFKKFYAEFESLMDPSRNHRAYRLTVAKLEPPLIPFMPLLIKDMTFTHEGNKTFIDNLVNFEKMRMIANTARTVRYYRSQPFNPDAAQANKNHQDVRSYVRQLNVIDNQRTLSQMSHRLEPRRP

Target: Rap guanine nucleotide exchange factor 4 (Homo sapiens) (UniProt Q8WZA2)
Experiment: qHTS for Antagonist of cAMP-regulated guanine nucleotide exchange factor 2 (EPAC2): primary screen; further: nearly all actives have a fitted effect of over 45% in size
Conditions: EPAC2 GEF exchange of Rap1B-BODIPY-GDP, fluorescence; at 114 µM (top of the series)
Text: In multi-cellular eukaryotic organisms, the effects of cAMP are transduced by two ubiquitously-expressed intracellular cAMP receptors, the classic protein kinase A/cAMP-dependent protein kinase (PKA/cAPK) and the more recently discovered exchange protein directly activated by cAMP/cAMP-regulated guanine nucleotide exchange factor (EPAC/cAMP-GEF). Both PKA and EPAC are ubiquitously expressed in all tissues, and an increase in intracellular cAMP levels will lead to the activation of both PKA and EPAC. […]
This qHTS will be used to screen the Molecular Libraries Small Molecule Repository (MLSMR) as a concentration-titration series using the NCGC unique quantitative screening (qHTS) platform to find inhibitors for EPAC2. […] Inhibitors are identified by monitoring the change in fluorescence signal as the exchanged free BODIPY-GDP has a reduced fluorescence compared to Rap1-bound BODIPY-GDP. […]
Briefly, three uL of reagents (100 nM EPAC2, 250 nM RAP1B-BODIPY-GDP, 50 uM GDP) were dispensed into a 1536-well Greiner black solid-bottom medium binding assay plate. […] The assay plates were read at 5 minute intervals for 30 minutes in the ViewLux plate reader using 480nm excitation and 540nm emission filters. […]
On the % scale 0 is the no-effect control and ±100 the full control effect.

| Structure (SMILES) | activity, negative = inhibition |
| --- | --- |
| CCC(=O)N(c1ccccc1)C1(COC)CCN(CCc2cccs2)CC1 | inactive: 20.4% |
| CCC(=O)N(c1ccccc1)C1(COC)CCN(CCn2nnn(CC)c2=O)CC1 | inactive: 9.49% |
